Test results: ChEMBL document CHEMBL1938391, “Design and synthesis of novel photoaffinity probes for study of the target proteins of oleanolic acid” (Bioorg Med Chem Lett, 2012)

Molecular target: T1, Glycogen phosphorylase, muscle form (Oryctolagus cuniculus, UniProt P00489)
T1 sequence (P00489 whole entry): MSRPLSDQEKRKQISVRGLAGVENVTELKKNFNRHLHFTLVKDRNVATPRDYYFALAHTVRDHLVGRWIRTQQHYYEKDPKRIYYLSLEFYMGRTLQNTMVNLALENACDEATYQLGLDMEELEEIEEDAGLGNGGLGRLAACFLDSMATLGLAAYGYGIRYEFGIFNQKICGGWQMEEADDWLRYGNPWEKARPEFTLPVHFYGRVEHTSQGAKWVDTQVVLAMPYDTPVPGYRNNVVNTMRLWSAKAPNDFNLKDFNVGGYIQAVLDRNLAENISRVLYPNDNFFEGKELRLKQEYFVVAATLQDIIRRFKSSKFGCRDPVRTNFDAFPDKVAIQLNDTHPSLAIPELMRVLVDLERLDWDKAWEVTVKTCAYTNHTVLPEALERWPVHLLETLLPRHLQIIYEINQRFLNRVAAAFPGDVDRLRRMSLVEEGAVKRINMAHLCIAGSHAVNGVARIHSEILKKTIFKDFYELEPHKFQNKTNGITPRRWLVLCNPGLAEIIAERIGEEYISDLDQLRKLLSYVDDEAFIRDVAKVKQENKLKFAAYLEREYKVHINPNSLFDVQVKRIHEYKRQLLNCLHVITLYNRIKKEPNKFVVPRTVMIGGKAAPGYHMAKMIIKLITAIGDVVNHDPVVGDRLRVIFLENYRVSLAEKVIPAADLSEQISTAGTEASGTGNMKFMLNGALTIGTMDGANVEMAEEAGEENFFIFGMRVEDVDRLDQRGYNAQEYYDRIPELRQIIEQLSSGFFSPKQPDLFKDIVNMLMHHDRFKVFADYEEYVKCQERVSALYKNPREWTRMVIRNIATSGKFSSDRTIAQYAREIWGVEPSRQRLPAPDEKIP
Test: Inhibition of rabbit muscle glycogen phosphorylase a assessed as release of phosphate from glucose-1-phosphate after 25 mins using malachite green staining

CC1(C)CC[C@]2(C(=O)O)CC[C@]3(C)C(=CC[C@@H]4[C@@]5(C)CC[C@H](O)C(C)(C)[C@@H]5CC[C@]43C)[C@@H]2C1 [OLEANOLIC_ACID]
IC50: 22.9 µM
